Values of other authors, collected in PMC6017357, “In Vitro Inhibitory Effects of Synthetic Cannabinoid EAM-2201 on Cytochrome P450 and UDP-Glucuronosyltransferase Enzyme Activities in Human Liver Microsomes” (Molecules : A Journal of Synthetic Chemistry and Natural …, 2018).

Protein sequences, listed by entry. Tags and fused reporters are not part of them.
UniProt P11712, whole entry: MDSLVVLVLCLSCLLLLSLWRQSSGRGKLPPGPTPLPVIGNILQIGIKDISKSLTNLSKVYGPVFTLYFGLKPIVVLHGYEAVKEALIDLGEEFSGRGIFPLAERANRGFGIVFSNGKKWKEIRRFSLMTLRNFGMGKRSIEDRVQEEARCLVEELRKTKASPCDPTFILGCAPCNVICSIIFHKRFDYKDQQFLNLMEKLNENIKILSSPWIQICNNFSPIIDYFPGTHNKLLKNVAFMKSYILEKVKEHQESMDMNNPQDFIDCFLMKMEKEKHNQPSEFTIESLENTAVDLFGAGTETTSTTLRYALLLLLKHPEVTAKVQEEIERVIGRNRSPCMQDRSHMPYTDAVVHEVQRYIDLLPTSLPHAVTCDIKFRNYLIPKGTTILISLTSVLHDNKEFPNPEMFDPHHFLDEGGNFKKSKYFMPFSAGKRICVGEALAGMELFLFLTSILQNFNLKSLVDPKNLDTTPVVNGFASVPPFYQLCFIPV

Target: CYP2C9 (Homo sapiens, UniProt P11712)
Settings: read-out: Ki, CYP2C9-catalyzed diclofenac hydroxylation; mixed or competitive inhibition, human liver microsomes; cited from earlier work

In the case of `CCCCCc1cc(O)c2c(c1)OC(C)(C)c1ccc(C)cc1-2` [cannabinol], the Ki is listed as 1290 nM.
